Values of other authors as cited in Sander's compilation of Henry's law constants (doi:10.1016/j.chemosphere.2021.129858).

Assay: Henry solubility constant Hcp at 298.15 K (mol/(m3 Pa))
Conditions: reference: Schwardt et al. (2021); cited value

Structure (SMILES): CCl [chloromethane]
- Henry solubility constant Hcp: 0.001
